Experimental findings from US20090022659A1 (ALDERBIO, published 2009) are described below.

The chains behind the UniProt entries cited, without tags or fusion partners. Residues count along the entry.
UniProt P01375, 77-233 limits assumed: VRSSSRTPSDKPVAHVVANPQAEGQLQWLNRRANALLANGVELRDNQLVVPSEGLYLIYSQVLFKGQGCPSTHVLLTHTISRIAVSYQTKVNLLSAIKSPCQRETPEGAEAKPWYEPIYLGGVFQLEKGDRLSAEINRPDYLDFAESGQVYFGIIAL

For this test, the target named is Tumor Necrosis Factor-alpha (TNF-α), R&D systems 210-TA / 210-TA-CF (human) (UniProt P01375).

Remicade® (infliximab) (antibody) returned an EC50 (read off the curve); OD versus antibody concentration (the assay is not named for this figure) of 0.01 µg/mL.
